Assay results published in patent US20220389009A1, “SUBSTITUTED 1,6-NAPHTHYRIDINE INHIBITORS OF CDK5” (Goldfinch Bio, Inc., priority 2019, published 2022).

Sequences of proteins named here, by UniProt entry; tags and fusion partners are left off. Residues count along the entry.
UniProt Q00535, whole entry: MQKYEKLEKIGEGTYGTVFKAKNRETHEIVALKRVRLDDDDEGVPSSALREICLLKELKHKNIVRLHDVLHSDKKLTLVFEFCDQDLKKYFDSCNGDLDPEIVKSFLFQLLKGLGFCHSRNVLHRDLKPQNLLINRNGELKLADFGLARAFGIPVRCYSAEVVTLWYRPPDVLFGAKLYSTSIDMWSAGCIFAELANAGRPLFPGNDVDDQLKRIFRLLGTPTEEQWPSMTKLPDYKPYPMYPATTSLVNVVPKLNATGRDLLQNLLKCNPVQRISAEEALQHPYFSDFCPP
UniProt Q15078, 99-307 partner limits assumed: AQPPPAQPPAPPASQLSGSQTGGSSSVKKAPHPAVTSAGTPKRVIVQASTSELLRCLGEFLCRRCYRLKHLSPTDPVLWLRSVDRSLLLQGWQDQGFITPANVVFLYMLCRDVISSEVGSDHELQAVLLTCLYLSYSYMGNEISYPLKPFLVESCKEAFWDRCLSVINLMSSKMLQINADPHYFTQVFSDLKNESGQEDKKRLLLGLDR

What was measured:
[1] = target: CDK5/p25 (Homo sapiens, UniProt Q00535); test: CDK5 mobility shift assay (enzymatic activity of CDK5/p25); conditions: for CDK5/CDK2 specificity: fold more active against CDK5 than CDK2; for IC50: read-out: CDK5 IC50, 0.154 nM CDK5/p25, FL peptide 29, 60 min at room temperature
[2] = target: CDK2/CycA2 (Homo sapiens, UniProt P24941); test: CDK2 mobility shift assay (enzymatic activity of CDK2/CycA2); conditions: read-out: CDK2 IC50; 1.25 nM CDK2/CycA2, 37 μM ATP, FL Peptide 18, 120 min at room temperature

| Compound | IC50 [1] | IC50 [2] | CDK5/CDK2 specificity [1] |
| --- | --- | --- | --- |
| N[C@H]1C[C@@H](S(=O)(=O)c2ccc3cnc(Nc4ccc(-n5ccc(CO)n5)cc4F)cc3n2)C1 | 100 to 1000 nM | > 1000 nM | + (10-fold or less more active against CDK5 than CDK2) |
| COc1cc(-c2ccc(Nc3cc4nc([C@](O)(C5CCN(C)CC5)C(F)(F)F)ccc4cn3)c(F)c2)ccn1 | > 1000 nM | > 1000 nM | ++ (greater than 10-fold and less than or equal to 100-fold more active against CDK5 than CDK2) |
| O=C(O)CN(c1ccc2cnc(Nc3ccc(-n4ccc(CO)n4)cc3F)cc2n1)C1CCN(CC(F)(F)F)CC1 | > 1000 nM | > 1000 nM | + (10-fold or less more active against CDK5 than CDK2) |
| CN1CCC(C(O)(c2ccc3cnc(Nc4ccc(-c5cccn(C)c5=O)cc4F)cc3n2)C(F)(F)F)CC1 (single isomer, unassigned) [403] | 100 to 1000 nM | > 1000 nM | ++ (greater than 10-fold and less than or equal to 100-fold more active against CDK5 than CDK2) |
| OCc1ccn(-c2ccc(Nc3cc4nc(NC5CC6CC5CN6)ccc4cn3)c(F)c2)n1 (single isomer, unassigned) | > 1000 nM | > 1000 nM | + (10-fold or less more active against CDK5 than CDK2) |
| NC(=O)CN1CCC(S(=O)(=O)c2ccc3cnc(Nc4ccc(-n5ccc(CO)n5)cc4F)cc3n2)CC1 | 10 to 100 nM | 100 to 1000 nM | ++ (greater than 10-fold and less than or equal to 100-fold more active against CDK5 than CDK2) |
| C[C@@H]1C[C@@H](S(=O)(=O)c2ccc3cnc(Nc4ccc(-n5ccc(CO)n5)cc4F)cc3n2)CCN1 | 100 to 1000 nM | > 1000 nM | + (10-fold or less more active against CDK5 than CDK2) |
| CN1CCC([C@H](O)c2ccc3cnc(Nc4ccc(-c5cccc(C#N)c5)cc4F)cc3n2)CC1 (single isomer, unassigned) | 10 to 100 nM | > 1000 nM | ++ (greater than 10-fold and less than or equal to 100-fold more active against CDK5 than CDK2) |
| COC(=O)c1ccn(-c2ccc(Nc3cc4nc([C@H](C)C5CCN(C)CC5)ccc4cn3)c(F)c2)n1 | 100 to 1000 nM | > 1000 nM | ++ (greater than 10-fold and less than or equal to 100-fold more active against CDK5 than CDK2) |
| O=S(=O)(c1ccc2cnc(Nc3ccc(-n4cccn4)cc3F)cc2n1)C1CCNCC1 | 10 to 100 nM | 100 to 1000 nM | ++ (greater than 10-fold and less than or equal to 100-fold more active against CDK5 than CDK2) |
| CN1CCC(S(=O)(=O)Nc2ccc3cnc(Nc4ccc(-n5ccc(CO)n5)cc4F)cc3n2)CC1 | 100 to 1000 nM | > 1000 nM | ++ (greater than 10-fold and less than or equal to 100-fold more active against CDK5 than CDK2) |
| CN1CCC(N(CC(=O)O)c2ccc3cnc(Nc4cccc(S(N)(=O)=O)c4)cc3n2)CC1 | < 10 nM | 10 to 100 nM | ++ (greater than 10-fold and less than or equal to 100-fold more active against CDK5 than CDK2) |
| N[C@H]1CC[C@@H](N(CC(=O)O)c2ccc3cnc(Nc4ccc(-n5cccn5)cc4F)cc3n2)CC1 (relative stereo) | 10 to 100 nM | > 1000 nM | +++ (greater than 100-fold more active against CDK5 than CDK2) |
| CN1CCC(S(=O)(=O)c2ccc3cnc(Nc4cccc(C#N)c4)cc3n2)CC1 | < 10 nM | 100 to 1000 nM | ++ (greater than 10-fold and less than or equal to 100-fold more active against CDK5 than CDK2) |
| N[C@H]1CC[C@H](Sc2ccc3cnc(Nc4ccc(-n5cccn5)cc4F)cc3n2)CC1 | < 10 nM | 10 to 100 nM | ++ (greater than 10-fold and less than or equal to 100-fold more active against CDK5 than CDK2) |
| COc1cccc(-c2ccc(Nc3cc4nc(S(=O)(=O)C5CCN(C)CC5)ccc4cn3)c(F)c2)c1 | < 10 nM | > 1000 nM | +++ (greater than 100-fold more active against CDK5 than CDK2) |
| COc1nccc(-c2ccc(Nc3cc4nc(C(C)(O)C5CCN(C)CC5)ccc4cn3)cc2)n1 (stereo not drawn) | < 10 nM | 10 to 100 nM | ++ (greater than 10-fold and less than or equal to 100-fold more active against CDK5 than CDK2) |
| CN1CCC(S(=O)(=O)c2ccc3cnc(Nc4ccc(-c5ccc(C#N)cc5)cc4F)cc3n2)CC1 | < 10 nM | > 1000 nM | +++ (greater than 100-fold more active against CDK5 than CDK2) |

Second part, led by results:

| IC50 [1] | IC50 [2] | Compound | CDK5/CDK2 specificity [1] |
| --- | --- | --- | --- |
| < 10 nM | 10 to 100 nM | C[C@]1(N)CC[C@H](S(=O)(=O)c2ccc3cnc(Nc4ccc(-n5ccc(CO)n5)cc4F)cc3n2)CC1 (relative stereo) | ++ (greater than 10-fold and less than or equal to 100-fold more active against CDK5 than CDK2) |
| < 10 nM | 100 to 1000 nM | COc1ccc(-c2ccc(Nc3cc4nc(S(=O)(=O)C5CCN(C)CC5)ccc4cn3)c(F)c2)cn1 | +++ (greater than 100-fold more active against CDK5 than CDK2) |
| < 10 nM | 10 to 100 nM | CN1CCC([C@@](C)(O)c2ccc3cnc(Nc4ccc(C(C)(C)O)nc4)cc3n2)CC1 | ++ (greater than 10-fold and less than or equal to 100-fold more active against CDK5 than CDK2) |
| < 10 nM | < 10 nM | CN1CCC(S(=O)(=O)c2ccc3cnc(Nc4ccc(N5CCCS5(=O)=O)cc4)cc3n2)CC1 | + (10-fold or less more active against CDK5 than CDK2) |
| < 10 nM | 100 to 1000 nM | CN1CCC(S(=O)(=O)c2ccc3cnc(Nc4ccc(-c5ccncc5)cc4F)cc3n2)CC1 | +++ (greater than 100-fold more active against CDK5 than CDK2) |
| < 10 nM | 100 to 1000 nM | CN1CCC([C@@](C)(O)c2ccc3cnc(Nc4ccc(-n5cc(C#N)cn5)cc4F)cc3n2)CC1 | ++ (greater than 10-fold and less than or equal to 100-fold more active against CDK5 than CDK2) |
| < 10 nM | 100 to 1000 nM | CN1CCC(C(O)c2ccc3cnc(Nc4ccc(-n5cccn5)cc4F)cc3n2)CC1 (stereo not drawn) | ++ (greater than 10-fold and less than or equal to 100-fold more active against CDK5 than CDK2) |
| < 10 nM | > 1000 nM | COc1cc(-c2ccc(Nc3cc4nc(S(=O)(=O)C5CCN(C)CC5)ccc4cn3)c(F)c2)ccn1 | +++ (greater than 100-fold more active against CDK5 than CDK2) |
| < 10 nM | 10 to 100 nM | NS(=O)(=O)c1cccc(Nc2cc3nc(SC4CCNCC4)ccc3cn2)c1 | ++ (greater than 10-fold and less than or equal to 100-fold more active against CDK5 than CDK2) |
| < 10 nM | 100 to 1000 nM | CN1CCC([C@@H](O)c2ccc3cnc(Nc4ccc(-c5cccc(C#N)c5)cc4F)cc3n2)CC1 (single isomer, unassigned) | +++ (greater than 100-fold more active against CDK5 than CDK2) |
| < 10 nM | > 1000 nM | CCOC(=O)c1ccc(-c2ccc(Nc3cc4nc(S(=O)(=O)C5CCN(C)CC5)ccc4cn3)c(F)c2)cc1 | +++ (greater than 100-fold more active against CDK5 than CDK2) |
| < 10 nM | 100 to 1000 nM | CN1CCC(S(=O)(=O)c2ccc3cnc(Nc4ccc(-c5ccc(C(N)=O)cc5)cc4F)cc3n2)CC1 | +++ (greater than 100-fold more active against CDK5 than CDK2) |
| < 10 nM | > 1000 nM | CN1CCC(S(=O)(=O)c2ccc3cnc(Nc4ccc(-n5ccc(CO)n5)cc4F)cc3n2)CC1 | +++ (greater than 100-fold more active against CDK5 than CDK2) |
| < 10 nM | 100 to 1000 nM | CN1CCC(S(=O)(=O)c2ccc3cnc(Nc4cccc(S(C)(=O)=O)c4)cc3n2)CC1 | ++ (greater than 10-fold and less than or equal to 100-fold more active against CDK5 than CDK2) |
| < 10 nM | 10 to 100 nM | C[C@@H]1CNCC[C@H]1Sc1ccc2cnc(Nc3ccc(-n4ccc(CO)n4)cc3F)cc2n1 | ++ (greater than 10-fold and less than or equal to 100-fold more active against CDK5 than CDK2) |
| < 10 nM | 100 to 1000 nM | Cc1ccc(Nc2cc3nc(S(=O)(=O)C4CCN(C)CC4)ccc3cn2)cc1 | +++ (greater than 100-fold more active against CDK5 than CDK2) |
| < 10 nM | 100 to 1000 nM | CN1CCC([C@@](C)(O)c2ccc3cnc(Nc4cc(-c5cccn(C)c5=O)ccc4F)cc3n2)CC1 | ++ (greater than 10-fold and less than or equal to 100-fold more active against CDK5 than CDK2) |
| < 10 nM | 100 to 1000 nM | CN1CCC(Nc2ccc3cnc(Nc4ccc(-c5cccnc5)cc4F)cc3n2)CC1 | ++ (greater than 10-fold and less than or equal to 100-fold more active against CDK5 than CDK2) |
| < 10 nM | 100 to 1000 nM | CN1CCC(S(=O)(=O)c2ccc3cnc(Nc4ccc(-c5noc(=O)[nH]5)cc4)cc3n2)CC1 | +++ (greater than 100-fold more active against CDK5 than CDK2) |
| < 10 nM | 100 to 1000 nM | CN1CCC(Nc2ccc3cnc(Nc4ccc(-n5cccn5)cc4F)cc3n2)CC1 | ++ (greater than 10-fold and less than or equal to 100-fold more active against CDK5 than CDK2) |
| < 10 nM | 10 to 100 nM | CN1CCC(S(=O)(=O)c2ccc3cnc(Nc4cccc(-n5cnnn5)c4)cc3n2)CC1 | ++ (greater than 10-fold and less than or equal to 100-fold more active against CDK5 than CDK2) |
| < 10 nM | < 10 nM | CCOC(=O)c1cccc(Nc2cc3nc(SC4CCNCC4)ccc3cn2)c1 | ++ (greater than 10-fold and less than or equal to 100-fold more active against CDK5 than CDK2) |
| < 10 nM | 100 to 1000 nM | CN1CCC([C@@](C)(O)c2ccc3cnc(Nc4ccc(-n5ccccc5=O)cc4F)cc3n2)CC1 | ++ (greater than 10-fold and less than or equal to 100-fold more active against CDK5 than CDK2) |
